Laboratory results: patent US8871280B1, “Compositions and methods for treating fungal activity in plants or soil” (The United States of America, as represented by the …, priority 2011, dated 2014)

Legend:
[1] = system: Rhizoctonia solani; experiment: Greenhouse suppression of damping off of cucumber seedlings in R. solani infested soil amended with plant extract; type: in vivo, Rhizoctonia solani AG-4, isolate Rs 23A; details: 12 seeds sown per pot, infested soil amended with 0.3% PE
[2] = system: cucumber seeds; details: in vivo, 0.3 % of PE in soil (3000 ppm)
Method: Soil treatment: For each treatment, 300 g of dry greenhouse soli (Pro-mix, Premier Horticulture LTD, Red Hill, Pa.) was thoroughly mixed with Rhizoctonia inoculum and incubated for 15 days as described above. […] The infested soil treated with only the carrier solution served as an untreated control. Following the treatment, the soil was thoroughly stirred to mix the contents and incubated in a double polythene bag closed tightly in the dark at room temperature for four days for fumigation to occur. Following the incubation, the bag was opened to allow as much PE to dissipate as possible. This was done by sprinkling the surface soil with sterile water every other day, and stirring the soil once every day for seven days. For assay of effect on seed germination and phytotoxicity of the plant extracts, soil was treated with plant extract formulations alone.
Greenhouse studies: Treated soil from each treatment was distributed to 4-inch plastic pots into which 12 seeds of cucumbers (95-100% germination) were sown and lightly watered to keep soil moist. The treatments were color coded and pots were randomized across treatment. All plants were kept in a greenhouse between 20° C. (night) to 26° C. (day) with 14 h of light. […] Total number of seedlings without any sign of damping off in each pot was recorded and percentage of disease suppression were calculated four weeks after sowing cucumber seeds.

Structure (SMILES)	Avg. seed Germination (+ PE + R. solani) [1]	% Seed germination (+ PE only) [2] [%]
Cc1ccc(C(C)C)cc1O [Carvacrol]	5.67	
C=CCc1ccc(O)c(OC)c1 [Eugenol]		83.33
Cc1ccc(C(C)C)c(O)c1 [Thymol]		66.67
